Test system: U937 monocytes
Assay: U937 monocyte cell death by trypan blue staining
Format: cell-based
Settings: LD50 in U937 / IC50 IL-1β in PBMC; 960 min

c1ccc(-c2ccc(CNCCNCc3ccc(-c4ccccn4)cc3)cc2)nc1 [BC-1215]
therapeutic index TI = LC50/IC50: 100

Reference: publication PMC3845358 (Journal of immunology (Baltimore, Md. : 1950), 2013)
